# Assay results as given in US12310936B2, “Pharmaceutical compositions for the treatment of cancer” (Seleq Oy, priority 2018, dated 2025).
# Columns and labels:
# HCC cells = experiment: Modulation of SMC cytotoxicity by agents that favor beta-elimination; conditions: more prominent together with overexpression of KYAT1
# Native HCC cells = experiment: HCC cell viability with SMC in the presence of alfaketoacid analogues, native HCC cells; assay type: cell-based
# Protocol: Normal hepatocytes and malignant hepatocytes (HCC) were incubated in the presence of various concentrations of SMC. After 72 h, the ATP content of lysed cells, which is proportional to the number of viable cells, was measured using a luminescence-based CellTiter Glo Kit (Promega) according to manufacturer's protocol using a FLx100 Luminometer (BioTek).
substance,measurement,setting,value
indole pyruvic acid [IPA],effect of the agent on the cytotoxicity of SMC,HCC cells,increase the cytotoxicity of SMC
same,effect on the cytotoxicity of SMC compared to PPA,Native HCC cells,even stronger effect on the cytotoxicity compared to PPA
